Source: patent US20210380929A1, “METHODS, APPARATUS AND KITS FOR BACTERIAL CELL LYSIS” (TECHNISCHE UNIVERSITÄT WIEN, priority 2018, published 2021)

Tested on: qPCR amplification of a diagnostic fragment of the Enterococcus spp. 23S rRNA gene (DNA plasmid standard)
Settings: IL concentration 762 mM; 10^4 DNA target copies

**Q.** For `CCCCCCn1cc[n+](C)c1.[Cl-]` [[C6mim]Cl, 1-Hexyl-3-methylimidazolium chloride], which “inhibitory effect on the qPCR amplification reaction” value (“inhibitory effect” for short) is on record?
**A.** The value was “substantially interfered with the reaction”.

**Q.** For `CCCCOP(=O)([O-])OCCCC.C[N+](C)(C)CCO` [[Cho]DBP, Choline dibutylphosphate], which “inhibitory effect” value is on record?
**A.** The value was “completely inhibited the amplification”.

**Q.** `CCCCCC(=O)[O-].C[N+](C)(C)CCO` [[Cho]Hex, Choline hexanoate] was tested. Which “inhibitory effect” value did it give?
**A.** Its value is “completely inhibited the amplification”.
